The subject of this data set is HepG2 cells. Kind of data set: Cell toxicity (CC50) in the HepG2 cell line, CellTiter-Glo. Type of data set: cell-based, human. Particulars: 24 h, ATP luminescence, compound from screened library.

One substance from article PMC3039689, “Identification of Small Molecule Lead Compounds for Visceral Leishmaniasis Using a Novel Ex Vivo Splenic Explant Model System” (PLoS Neglected Tropical Diseases, 2011) can be followed below.

The CC50 is the concentration giving 50% cytotoxicity. In turn, Monensin Sodium registered a CC50 of 72.9 µM.
